{"sequences": {"note": "By UniProt entry, the sequences of proteins in these tests, tags left out. Where a name states a change or a piece, a line headed by the entry shows the natural chain unless it says otherwise. Residues count along the entry.", "UniProt P28827, 21-1452": "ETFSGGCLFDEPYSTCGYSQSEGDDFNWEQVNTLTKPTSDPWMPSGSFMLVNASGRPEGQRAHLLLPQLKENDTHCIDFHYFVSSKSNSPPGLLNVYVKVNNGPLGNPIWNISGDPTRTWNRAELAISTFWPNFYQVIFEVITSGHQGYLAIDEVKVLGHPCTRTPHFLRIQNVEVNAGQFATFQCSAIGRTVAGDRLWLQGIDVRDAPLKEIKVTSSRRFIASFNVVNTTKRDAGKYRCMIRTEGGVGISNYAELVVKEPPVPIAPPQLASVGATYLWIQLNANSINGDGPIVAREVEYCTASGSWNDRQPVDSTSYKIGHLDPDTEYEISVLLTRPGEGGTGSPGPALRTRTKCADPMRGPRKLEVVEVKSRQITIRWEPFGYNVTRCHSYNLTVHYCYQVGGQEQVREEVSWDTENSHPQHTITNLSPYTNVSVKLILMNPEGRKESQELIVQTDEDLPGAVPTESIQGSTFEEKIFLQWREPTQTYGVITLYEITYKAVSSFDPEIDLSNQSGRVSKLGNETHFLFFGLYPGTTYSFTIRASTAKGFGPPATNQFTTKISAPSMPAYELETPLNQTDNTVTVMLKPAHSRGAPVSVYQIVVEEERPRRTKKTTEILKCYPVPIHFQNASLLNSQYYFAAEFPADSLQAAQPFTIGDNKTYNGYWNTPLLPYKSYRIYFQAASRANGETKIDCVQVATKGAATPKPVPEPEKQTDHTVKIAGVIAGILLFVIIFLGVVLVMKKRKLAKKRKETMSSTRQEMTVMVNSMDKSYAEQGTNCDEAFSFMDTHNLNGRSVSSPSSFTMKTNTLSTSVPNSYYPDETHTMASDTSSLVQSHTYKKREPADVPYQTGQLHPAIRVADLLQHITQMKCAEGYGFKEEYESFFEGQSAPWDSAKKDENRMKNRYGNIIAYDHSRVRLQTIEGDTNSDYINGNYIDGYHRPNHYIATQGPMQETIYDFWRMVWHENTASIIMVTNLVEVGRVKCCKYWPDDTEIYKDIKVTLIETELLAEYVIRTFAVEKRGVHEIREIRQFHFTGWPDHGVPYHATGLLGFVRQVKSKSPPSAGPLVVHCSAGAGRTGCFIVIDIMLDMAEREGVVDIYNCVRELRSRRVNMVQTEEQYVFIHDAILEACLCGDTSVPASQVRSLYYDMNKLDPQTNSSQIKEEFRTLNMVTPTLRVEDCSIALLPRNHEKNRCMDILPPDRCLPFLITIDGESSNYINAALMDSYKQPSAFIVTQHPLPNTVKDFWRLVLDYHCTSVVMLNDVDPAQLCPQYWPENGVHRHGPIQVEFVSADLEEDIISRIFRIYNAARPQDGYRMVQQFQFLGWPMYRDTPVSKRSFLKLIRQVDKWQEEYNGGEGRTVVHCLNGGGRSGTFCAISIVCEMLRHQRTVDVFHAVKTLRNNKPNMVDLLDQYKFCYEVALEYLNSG", "UniProt P9WIA1": "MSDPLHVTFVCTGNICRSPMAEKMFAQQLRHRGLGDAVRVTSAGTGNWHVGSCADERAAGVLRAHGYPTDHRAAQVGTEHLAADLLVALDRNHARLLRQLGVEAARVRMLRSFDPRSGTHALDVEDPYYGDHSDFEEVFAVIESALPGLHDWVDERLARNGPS"}, "source": "patent US10494332B2", "about": "“Protein tyrosine phosphatases or SHP2 inhibitors and uses thereof” (Indiana University Research and Technology Corporation, priority 2015, dated 2019)", "key": {"[1]": {"target": "PTPμ (Homo sapiens, UniProt P28827)", "test": "biochemical"}, "[2]": {"target": "T1, PP5 (Homo sapiens, UniProt P53041)", "T1 sequence (P53041 1-499)": "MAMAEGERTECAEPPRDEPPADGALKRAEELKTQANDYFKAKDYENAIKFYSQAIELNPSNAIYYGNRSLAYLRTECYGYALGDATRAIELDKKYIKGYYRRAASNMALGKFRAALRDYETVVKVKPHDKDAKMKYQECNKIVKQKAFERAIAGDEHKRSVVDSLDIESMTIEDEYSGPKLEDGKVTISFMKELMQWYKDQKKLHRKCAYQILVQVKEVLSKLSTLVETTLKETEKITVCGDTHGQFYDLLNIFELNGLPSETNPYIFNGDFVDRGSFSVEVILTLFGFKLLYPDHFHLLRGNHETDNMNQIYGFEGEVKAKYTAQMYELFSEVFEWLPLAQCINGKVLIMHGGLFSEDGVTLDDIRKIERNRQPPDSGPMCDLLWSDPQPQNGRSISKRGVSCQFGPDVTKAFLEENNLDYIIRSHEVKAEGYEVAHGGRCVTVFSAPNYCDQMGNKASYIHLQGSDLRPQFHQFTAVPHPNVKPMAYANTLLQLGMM", "test": "biochemical"}, "[3]": {"target": "T2, Laforin (Homo sapiens, UniProt O95278)", "T2 sequence (O95278 1-331)": "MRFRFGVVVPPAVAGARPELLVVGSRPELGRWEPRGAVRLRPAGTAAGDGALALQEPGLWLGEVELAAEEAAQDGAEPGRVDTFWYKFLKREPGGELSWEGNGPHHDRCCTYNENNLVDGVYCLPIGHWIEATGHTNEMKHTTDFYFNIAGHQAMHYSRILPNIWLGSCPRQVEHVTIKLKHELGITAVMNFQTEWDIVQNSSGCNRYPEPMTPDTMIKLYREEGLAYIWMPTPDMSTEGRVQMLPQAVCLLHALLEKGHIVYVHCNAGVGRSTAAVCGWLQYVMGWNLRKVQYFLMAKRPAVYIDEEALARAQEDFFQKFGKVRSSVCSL", "test": "PTP inhibition assay (pNPP)", "type": "biochemical"}, "[4]": {"target": "mPTPA (Mycobacterium tuberculosis, UniProt P9WIA1)", "type": "biochemical"}, "[5]": {"target": "T3, mPTPB (Mycobacterium tuberculosis, UniProt I6WXK4)", "T3 sequence (I6WXK4 1-276)": "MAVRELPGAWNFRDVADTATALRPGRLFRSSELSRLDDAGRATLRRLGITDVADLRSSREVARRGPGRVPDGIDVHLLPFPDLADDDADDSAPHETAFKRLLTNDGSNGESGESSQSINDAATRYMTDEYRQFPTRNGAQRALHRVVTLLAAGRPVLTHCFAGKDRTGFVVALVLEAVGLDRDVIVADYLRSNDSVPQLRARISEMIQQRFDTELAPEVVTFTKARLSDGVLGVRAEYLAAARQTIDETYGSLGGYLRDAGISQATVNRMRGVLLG", "type": "biochemical"}}}
{"smiles": "CC(C)c1ccc(NC(=O)C(=O)Nc2ccc(NC(=O)C(c3ccccc3)S(=O)(=O)O)cc2)cc1", "note": "(centres unmarked) [Compound 6, 2-((4-(2-((4-isopropylphenyl)amino)-2-oxoacetamido)phenyl)amino)-2-oxo-1-phenylethanesulfonic acid]", "values": [{"measurement": "IC50", "setting": "[1]", "result": "> 10", "unit": "µM"}, {"measurement": "IC50", "setting": "[2]", "result": "> 10", "unit": "µM"}]}
{"smiles": "Cc1c(Br)cc(NC(=O)C(c2ccccc2)S(=O)(=O)O)cc1Br", "note": "(centres unmarked) [Compound L319M34]", "values": [{"measurement": "IC50", "setting": "[3]", "result": 1.05, "unit": "µM"}]}
{"smiles": "O=C(Nc1ccc(N2CCOCC2)cc1)C(c1ccccc1)S(=O)(=O)O", "note": "(centres unmarked) [Compound L319M68]", "values": [{"measurement": "Fold selectivity for mPTPA over Laforin", "setting": "[4]", "result": 30, "unit": "fold"}, {"measurement": "Fold selectivity for mPTPA over human LMWPTP", "setting": "[4]", "result": 80, "unit": "fold"}, {"measurement": "Fold selectivity for mPTPA over mPTPB", "setting": "[4]", "result": 20, "unit": "fold"}, {"measurement": "Fold selectivity for mPTPA over other PTPs (human PTP panel)", "setting": "[4]", "result": "> 800", "unit": "fold"}]}
{"smiles": "O=C(C(c1ccccc1)S(=O)(=O)O)N1CCC(c2ccc(Cl)c(Cl)c2)CC1", "note": "(centres unmarked) [Compound L319N47]", "values": [{"measurement": "Fold increase in potency against mPTPB compared to SPAA", "setting": "[5]", "result": 2000, "unit": "fold"}, {"measurement": "Fold selectivity for mPTPB over mPTPA", "setting": "[5]", "result": 1000, "unit": "fold"}, {"measurement": "Fold selectivity for mPTPB over other PTPs (PTP panel)", "setting": "[5]", "result": "greater than 2000 fold"}]}
{"smiles": "O=C(C(c1ccccc1)S(=O)(=O)O)N1CCCC2CCCCC21", "note": "(centres unmarked) [Compound L319N53]", "values": [{"measurement": "Fold selectivity for mPTPB over other PTPs (PTP panel)", "setting": "[5]", "result": "greater than 10000 fold"}]}
